Results reported in patent US7723071B2 (priority 1992, dated 2010).

Protein sequences, listed by entry. Tags and fused reporters are not part of them.
UniProt P42866, whole entry R47P/S53N/H54D/V245G/R258Q: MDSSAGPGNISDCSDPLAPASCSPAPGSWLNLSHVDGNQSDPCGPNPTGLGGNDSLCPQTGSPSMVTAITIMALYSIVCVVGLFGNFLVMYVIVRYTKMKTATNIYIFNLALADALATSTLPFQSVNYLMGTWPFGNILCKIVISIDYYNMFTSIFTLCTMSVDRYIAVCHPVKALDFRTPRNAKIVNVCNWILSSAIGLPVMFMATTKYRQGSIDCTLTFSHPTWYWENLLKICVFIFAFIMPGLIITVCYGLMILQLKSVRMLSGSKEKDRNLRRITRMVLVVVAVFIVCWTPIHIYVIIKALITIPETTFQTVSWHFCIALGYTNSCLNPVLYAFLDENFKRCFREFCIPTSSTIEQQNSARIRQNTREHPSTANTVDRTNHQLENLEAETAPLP

Target: T1, DOR-2 (mMOR-1) mu receptor (Mus musculus, UniProt P42866, H54D/R258Q/R47P/S53N/V245G)
T1 construct: expressed in transfected cells
Assay type: binding, murine

CN1CC[C@]23c4c5ccc(O)c4O[C@H]2[C@@H](O)C=C[C@H]3[C@H]1C5 [morphine]
binding to transfected cells: bind morphine | displacement of 3H-DPN: displacement of ^3H-DPN by nanomolar concentrations
